# Laboratory results: PubChem BioAssay AID492963 (The Scripps Research Institute Molecular Screening Center, 2010)
# By UniProt entry, the sequences of proteins in these tests, tags left out.
# UniProt O43613, whole entry: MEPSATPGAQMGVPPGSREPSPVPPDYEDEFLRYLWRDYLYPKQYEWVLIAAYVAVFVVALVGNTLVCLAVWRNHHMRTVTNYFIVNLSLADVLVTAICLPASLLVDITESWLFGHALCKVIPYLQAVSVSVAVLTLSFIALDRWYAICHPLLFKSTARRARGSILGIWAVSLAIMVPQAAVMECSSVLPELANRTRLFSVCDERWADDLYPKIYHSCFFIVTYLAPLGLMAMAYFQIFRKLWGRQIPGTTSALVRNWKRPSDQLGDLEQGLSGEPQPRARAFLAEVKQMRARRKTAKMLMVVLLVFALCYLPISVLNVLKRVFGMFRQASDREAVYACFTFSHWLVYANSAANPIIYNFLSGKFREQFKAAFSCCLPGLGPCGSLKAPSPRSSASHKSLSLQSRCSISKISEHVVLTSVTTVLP
# The list shows a part of the results, in another mix than the full data. Active and inactive are the calls of the source. Cut-off read from the data, not from the text of the source: active = inhibition above about 29%; inactive = the rest.
# Biological target: Orexin/Hypocretin receptor type 1 (Homo sapiens) (UniProt O43613)
# Test: HCRTR1 blockers, calcium flux retest – fluorescence, CHO/OX1R cells, Fluo-8 calcium, orexin A, confirmation (AID 492963);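 note: 0% = agonist challenge alone and 100% = reference antagonist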
# Details: orexin A calcium Fluo-8 fluorescence, at 5 µM, active compounds read high
row,SMILES,inhibition
1,CP(=O)(Nc1ccc2c(c1)OCCO2)Oc1ccccc1 (stereo unspecified),inactive: -5%
